Measurements: patent US20250108100A1, “C-TERMINAL FRAGMENT OF APOLIPOPROTEIN E AND APPLICATION THEREOF IN INHIBITING y-SECRETASE ACTIVITY” (SYNPHATEC (SHANGHAI) BIOPHARMACEUTICAL TECHNOLOGY CO., LTD., priority 2022, published 2025)
“Also recorded” adds a separate entry of the source.

Tests used:
[1] = biological target: T1, PS1 (Homo sapiens, UniProt P49768); assay: ApoE2-APEX2 proximity labeling of co-expressed PS1 in HEK 293T cells; type: binding
T1 construct: expressed in transfected cells; host or cells: HEK 293T
Description: A method for detecting protein interactions in living cells by targeting APEX2 was applied as previously described (Hung et al., 2016). Approximately 30 hours after transfection with APEX2 plasmids via Lipofectamine2000 (Invitrogen Technology), HEK 293T cells were incubated in 1 ml of complete medium with or without 250 uM biotinphenol (BP) for 30 minutes at 37° C. Cells were treated with 1 mM H2O2 for 1 min and cells were washed 3 times in quencher solution (10 mM sodium ascorbate, 5 mM Trolox and 10 mM sodium azide solution in 1×DPBS). Cells were lysed in RIPA lysis buffer (1× protein inhibitor cocktail, 1 mM PMSF and 10 mM sodium ascorbate, 5 mM Trolox and 10 mM sodium azide). The lysate was sonicated and centrifuged on ice (12,000×g, 4° C., 10 min), and the supernatant was incubated with streptavidin magnetic beads overnight at 4° C. The beads were collected using a magnetic rack and washed with a series of buffers (twice with RIPA buffer, once with 1M KCl, once with 0.1M Na2CO3, twice with 2 M urea in 10 mM Tris-HCl, pH 8.0, and twice with RIPA lysis buffer. Biotinylated proteins were eluted from the beads by boiling each sample in loading buffer comprising 2 mM biotin and 20 mM DTT for 10 min, and the eluates were collected. Samples proceed to Western blot.

[2] = biological target: T2, human γ-secretase (Homo sapiens, UniProt P49768); assay: Purified system: cleavage of purified β-CTF by purified γ-secretase to Aβ40 (ELISA); type: biochemical; details: purified proteins at 2.5 μM
T2 construct: full-length PS1, FL-PS1; N-terminal fragment of PS1, PS1 NTF; C-terminal fragment of PS1, PS1 CTF; made in house; host or cells: HEK 293T

Row | biotinylation of co-expressed PS1 [1] | Substance | Aβ40 production from β-CTF by γ-secretase [2]
1 | biotinylated | ApoE2-APEX2: ApoE2 fused to APEX2 (ascorbate peroxidase 2) for proximity labeling | –
2 | – | ApoE2: human apolipoprotein E2, full-length 299 amino acid residues, SEQ ID NO: 12 | can significantly inhibit the production of Aβ; also recorded: can inhibit Aβ40
